# Earlier results in US20090053245A1, “Pharmacokinetics and Efficacy of Anti-Angiogenic Drugs and Drugs Treating Diseases of the Blood” (priority 2007, published 2009).
# Conditions: in vivo; cited from earlier work
substance,measurement,value
insulin,half-life,8 h
